According to US6689803B2, “Compositions and methods for treating surgical adhesions” (Angiotech Pharmaceuticals, Inc., priority 1996, dated 2004):
Where two headings read alike, the source gives them in different places.

Columns and labels:
[1] = In vitro release of paclitaxel from polymeric formulations; assay type: physicochemical; conditions: star-shaped PLA and PLGA microspheres
[2] = Octanol/water partition coefficient in enhancer solutions; assay type: physicochemical
[3] = Solubility / complexation of paclitaxel with cyclodextrins; assay type: physicochemical; conditions: 37° C.
[4] = tested on: chick chorioallantoic membrane (CAM) vasculature

SMILES: CC(=O)O[C@H]1C(=O)[C@@]2(C)[C@H]([C@H](OC(=O)c3ccccc3)[C@]3(O)C[C@H](OC(=O)[C@H](O)[C@@H](NC(=O)c4ccccc4)c4ccccc4)C(C)=C1C3(C)C)[C@]1(OC(C)=O)CO[C@@H]1C[C@@H]2O [paclitaxel]
- release rate relative to conventional linear PLA and PLGA microspheres [1]: 3 to 10 times faster
- Ko/w ([2]; Ethanol, octanol/PBS pH 7.4, 37° C.): 6.88
- Ko/w ([2]; Isopropyl myristate, octanol/PBS pH 7.4, 37° C.): ∞
- Ko/w ([2]; Oleic acid, octanol/PBS pH 7.4, 37° C.): ∞
- Ko/w ([2]; Propylene glycol:ethanol:isopropyl myristate (4.0:3.5:0.5)): 42.39
- Ko/w ([2]; Propylene glycol, octanol/PBS pH 7.4, 37° C.): 37.13
- Ko/w ([2]; Transcutol:isopropyl myristate (9:1)): 43.45
- Ko/w ([2]; Transcutol, octanol/PBS pH 7.4, 37° C.): 25.25
- stability constant, second order complex ([3]; HPβ-CD): 7965 M⁻¹
- stability constant, second order complex ([3]; HPγ-CD): 1886 M⁻¹
- stability constant, second order complex ([3]; γ-CD): 785 M⁻¹

SMILES: CC[C@]1(O)C[C@@H]2CN(CCc3c([nH]c4ccccc34)[C@@](C(=O)OC)(c3cc4c(cc3OC)N(C)[C@H]3[C@@](O)(C(=O)OC)[C@H](OC(C)=O)[C@]5(CC)C=CCN6CC[C@]43[C@@H]65)C2)C1 [vinblastine]
- Inhibition/n ([4]; PCL paste (3 mg), 0.25%): effective in inhibiting angiogenesis
- Inhibition/n ([4]; PCL paste (3 mg), 1%): effective in inhibiting angiogenesis
- Inhibition/n ([4]; PCL paste (3 mg), 2%): too toxic
- Inhibition/n ([4]; in vivo): effective in inhibiting angiogenesis
- Inhibition/n ([4]; methylcellulose (10 ul), 2 ug): too toxic
- Inhibition/n ([4]; methylcellulose (10 ul), 9 ug): too toxic
